## Yeast mating assay B: variants of the scFv Ab-14

All variants were tested on one target, the spike HR2 peptide PDVDLGDISGINAS (SARS-CoV-2).

Ab-14 is the parent antibody, in scFv form: VH, then the linker GGGGSGGGGSGGGGS, then VL. The light chain is unchanged in all variants.
VH: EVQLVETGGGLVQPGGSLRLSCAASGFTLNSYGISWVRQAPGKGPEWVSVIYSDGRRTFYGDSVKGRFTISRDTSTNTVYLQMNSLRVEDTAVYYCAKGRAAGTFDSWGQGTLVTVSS
VL: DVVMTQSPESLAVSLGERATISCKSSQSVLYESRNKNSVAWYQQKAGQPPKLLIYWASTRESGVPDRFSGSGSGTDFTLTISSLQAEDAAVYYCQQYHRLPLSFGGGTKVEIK

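Designed CDR sequences, proposed from the first random library and measured here. Group labels follow the data file (Ctrl: baseline library sampled from a position-specific scoring matrix, with some repeated check sequences; GPLM: also part of the Gaussian process libraries; HC: hill climbing; a sequence that several methods proposed may carry one label only). The scFvs were displayed on barcoded MATa yeast, the peptide on MATalpha yeast. Pairs that bind mate more often; barcode pairs of the diploids are counted by sequencing. Read counts were normalised to the haploid input and turned into Kd by a linear fit to BCL2-family pairs of known affinity, for each replicate. Each pool was mated in six replicate cultures.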

Each variant is given by its three heavy chain CDRs, as the data file delimits them; those of the parent are GFTLNSYGIS, VIYSDGRRTFYGDSVK, GRAAGTFDS. Values are log10 of the apparent Kd in nM; lower means stronger binding. Averages over replicates are reported, and they cover detected replicates only. A pair that was not seen in that replicate is written "nd"; this usually means weak binding, but a binder can also be missed.

CDR-H1,CDR-H2,CDR-H3,group,"log10 Kd, replicates",mean log10 Kd (nM),empty controls
GFTLNSYGIS,VIYSDGRRTFYGDSVK,TRASGTFDS,Ctrl,nd / nd / nd / nd / nd / nd,nd,0 of 18
GFTINSYGIS,VIYSDGRRTFYGDSVK,GRSAGKMDS,Ctrl,nd / nd / nd / nd / nd / nd,nd,0 of 18
GRALNSYGIS,VIYADGQRTFYGDSVK,GRAAGTFDP,Ctrl,nd / nd / nd / nd / nd / nd,nd,0 of 18
GFTLGSYGIS,VIYSDGRRTFYGDSVK,GRNAGTFDS,Ctrl,1.34 / 1.92 / 0.21 / 1.23 / 1.27 / 0.77,1.12,0 of 18
GFTLNKYGIS,VIYSDGRRTFYGDSVK,GRAMGAFDL,Ctrl,nd / nd / nd / nd / nd / nd,nd,0 of 18
GFTLNDYGIS,VIYSDGKRTFYGDSVK,GRAHGTFDS,Ctrl,nd / nd / nd / nd / nd / nd,nd,0 of 18
GETLNSYGIS,VIYSDGRRTFYGDSVK,GRAAGTFDS,Ctrl,nd / nd / 1.21 / nd / 0.56 / 0.85,0.87,0 of 18
GFTLRDYGIS,VIYSDGRRTFYTDSVK,GEASGTFDS,Ctrl,2.34 / 2.84 / 2.13 / 2.05 / 2.28 / 2.05,2.28,1 of 18 (2.84)
GFTLNEYGIS,VIYSDGMRTFYGDSVK,GRAAGTFDS,Ctrl+GPLM_HC,1.34 / nd / 0.89 / nd / 2.52 / 1.60; 0.30 / 1.71 / 1.13 / nd / 0.71 / 1.54,1.30,0 of 36
GFQLNNYGIS,VIYSDGRRTFYEDSVK,GRAAGTFDS,Ctrl,1.35 / 1.12 / 1.76 / 1.69 / nd / 1.70,1.52,1 of 18 (3.67)
GFGLNSYGIS,VIYSDGRRTFYGDSVK,GEAAGTFDS,Ctrl,0.87 / 0.66 / 0.82 / 0.71 / 1.60 / 1.28,0.99,0 of 18
GFTLNSYGIS,VIYSDGQRTFYGDSVK,GRARGTFDS,Ctrl,nd / nd / nd / nd / nd / nd,nd,0 of 18
GETLNSYGIS,VIYSDGRRTFYGDPVK,GRAAGTFDS,Ctrl,nd / nd / nd / 3.42 / nd / nd,3.42,0 of 18
GFTPNSYGIS,VIYSDGRRTFYGDSVK,GRAAGTFDS,Ctrl,nd / nd / nd / nd / nd / nd; nd / 0.23 / nd / nd / 1.15 / nd; nd / 2.63 / nd / nd / nd / nd; nd / nd / nd / nd / 1.10 / nd,1.28,1 of 72 (2.61)
GATLNSYGIS,VIYSDGRRTFYGDSVR,GRQAGTFDS,Ctrl,nd / nd / nd / nd / 1.87 / nd,1.87,2 of 18 (1.59)
GFTLNSYGIS,VIYSDGRRTHYGDSVK,GRAAGNFDS,Ctrl,nd / nd / nd / nd / nd / nd,nd,0 of 18
LFTLNSYGIS,VIYSDGRRTFYGDSVK,GREAGTFRS,Ctrl,nd / nd / nd / nd / nd / nd,nd,0 of 18
GFTINDYGIS,VIYSDGRRTFYGDSVK,GQAAGTFDS,Ctrl,0.89 / 0.88 / 0.50 / 0.45 / 0.48 / 1.20,0.73,1 of 18 (4.71)
GFTLNSYGIS,VIYSDGRRTSYNDSVK,GVAAGAFFS,Ctrl,nd / nd / nd / nd / nd / nd,nd,0 of 18
GTTLNSYGIS,VIYSDGRRTFYGDSVK,GRAAGTFDS,Ctrl,1.52 / nd / nd / nd / nd / nd,1.52,0 of 18
GFTLNSYGIS,VIYSDGRRTFYADSVE,GREADTFDD,Ctrl,nd / nd / nd / nd / nd / nd,nd,0 of 18
GFTLNSYGIS,VIYSDGRRTFYGDSVK,GRNAGTFDS,Ctrl,2.08 / 2.25 / 1.17 / 2.03 / nd / nd,1.88,0 of 18
GFTLNSYGIS,VIYSDGRRTFYGDDVK,GRAAGTFDA,Ctrl,nd / 2.27 / nd / nd / nd / 1.44,1.86,0 of 18
GFTLNSYGIS,VIHSDGRRTFYQDSVK,GRAGGTFDS,Ctrl,nd / nd / nd / nd / nd / nd,nd,0 of 18
GFHLNEYGIS,VIYSDGRRTFYGDAVK,GRAAGTFVS,Ctrl,nd / -0.57 / -0.19 / -0.19 / -0.17 / 0.81,-0.06,0 of 18
GFTLNQYGIS,VIYADGRRTFYGDSVK,GRAAHTFDS,Ctrl,nd / nd / nd / nd / nd / nd,nd,0 of 18
GFTLNSYGIS,VIYSDGRRTFYGDSVR,GRAPGTFDS,Ctrl,nd / nd / nd / nd / nd / nd,nd,0 of 18
GFSLESYGIS,VIYSDGRRTFYLDSVK,GRAAGTFDS,Ctrl,nd / 2.21 / nd / nd / nd / 0.83,1.52,0 of 18
GFTLLSYGIS,VIYSDGIRTFYGDSVK,GRAAGTFDS,Ctrl,nd / nd / nd / nd / nd / nd,nd,0 of 18
GFTLNSYGIS,VIYSDGRRCSYNDSVK,GRAAGWFFS,Ctrl,nd / nd / nd / nd / nd / nd,nd,0 of 18
KFTLNSYGIS,VIYSDGRRTSYGDSVK,GRVAGTFDS,Ctrl,nd / nd / nd / nd / nd / nd,nd,0 of 18
GFTLNSYGIS,VIYSDGRRTFYGDSVK,GSAAGSFDS,Ctrl,nd / nd / nd / nd / nd / nd,nd,0 of 18
GFTLNSYGIS,VIYSDGRRTFYSDSVK,GRADGTFDS,Ctrl,nd / nd / nd / 2.22 / nd / nd,2.22,1 of 18 (1.57)

Background: pairings of all heavy chain designs with three empty control strains gave a value in 1% of cases (median 2.08, 5th percentile 0.84). Values in that range, when seen in few replicates, are hard to tell from nonspecific mating. The control count says in how many pairings with the empty strains this scFv gave a signal, with their mean in brackets. The parent sequence was in this pool as ten entries: three were never detected, three once, and four in most replicates, with averages from 0.34 to 2.37. Values of this round are not directly comparable with the first-round values of the same sequences. In the paper, a design with two or fewer of six values counts as a poor binder. A sequence that the file lists under several names has all its replicates listed entry by entry, parted by semicolons.

Data: MIT Lincoln Laboratory AlphaSeq set, Li et al. 2023, doi:10.1038/s41467-023-39022-2, as distributed in FLAb.